For two molecules, EC50 results are on record in patent publication US10329256B2, “(Hetero)aryl cyclopropylamine compounds as LSD1 inhibitors” (Oryzon Genomics, S.A., priority 2011, dated 2019).

Counter-ions that a name gives are not always drawn.

This assay has as its system THP-1 cells. Description: cells. The conditions noted are these: Homo sapiens, THP-1, 96 h. Type of assay: cell-based. The protocol: THP-1 were purchased from DSMZ GmbH (Deutsche Sammlung von Mikroorganismen und Zellkulturen) and cultured in RPMI 1640 medium containing 10% of fetal bovine serum.
Serial dilutions of the compounds were prepared in DMSO and then further diluted in complete medium to generate solutions of concentrations that are double of the final concentration at which the cells will be exposed. 1 ml of these 2× concentrated solutions was added to the cells.
Each treated sample was split in two. […] Samples were incubated in the dark at 4° C. for 30-60 minutes and washed three times in PBS buffer containing 1% fetal bovine serum.
EC50 values were calculated by non-linear regression analysis.

One may read the EC50 as the concentration that produces a half-maximal response. A high value points to lower potency in that assay.

Take `c1ccc([C@H]2C[C@@H]2NCC2CCNCC2)cc1` (relative stereo) [Example 5, (Trans)-2-phenyl-N-(piperidin-4-ylmethyl)cyclopropanamine hydrochloride]: the midpoint of the response, the EC50, lay at 7.4 nM.

In turn, `c1ccc([C@H]2C[C@@H]2NC2CC3(CCNCC3)C2)cc1` (relative stereo) [Example 15, N-((trans)-2-phenylcyclopropyl)-7-azaspiro[3.5]nonan-2-amine] yielded an EC50 of 2.1 nM.
